Measurements as given in PubChem BioAssay (NCI).
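Where inhibition never reached the appropriate level, the endpoint shown equals the highest concentration tested. Otherwise, values were interpolated linearly from a five-concentration, 48-hour dose response in 96-well plates. GI50 is the concentration that inhibits growth by half. The concentration for full growth arrest is given as TGI.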

Key:
Test in all cases: NCI-60 cell line screen, 48 h
KM20L2 colon = tested on: KM20L2 colon
M19-MEL melanoma = tested on: M19-MEL melanoma
NCI-H23 lung = tested on: NCI-H23 lung
SW-620 colon = tested on: SW-620 colon
MCF7 breast = tested on: MCF7 breast
DMS 273 small cell lung = tested on: DMS 273 small cell lung
SR leukemia = tested on: SR leukemia
A498 renal = tested on: A498 renal
UACC-257 melanoma = tested on: UACC-257 melanoma
RPMI-8226 leukemia = tested on: RPMI-8226 leukemia
MOLT-4 leukemia = tested on: MOLT-4 leukemia
M14 melanoma = tested on: M14 melanoma
NCI-H226 lung = tested on: NCI-H226 lung
NCI/ADR-RES ovarian = tested on: NCI/ADR-RES ovarian
UO-31 renal = tested on: UO-31 renal
MDA-N = tested on: MDA-N
OVCAR-3 ovarian = tested on: OVCAR-3 ovarian
NCI-H460 lung = tested on: NCI-H460 lung
IGROV1 ovarian = tested on: IGROV1 ovarian
UACC-62 melanoma = tested on: UACC-62 melanoma
T-47D breast = tested on: T-47D breast
HCT-116 colon = tested on: HCT-116 colon
K-562 leukemia = tested on: K-562 leukemia
ACHN renal = tested on: ACHN renal
786-0 renal = tested on: 786-0 renal
A549 NSCLC = tested on: A549 NSCLC
COLO 205 colon = tested on: COLO 205 colon
HOP-18 NSCLC = tested on: HOP-18 NSCLC
SNB-78 CNS = tested on: SNB-78 CNS
HT29 colon = tested on: HT29 colon
DLD-1 colon = tested on: DLD-1 colon
HOP-62 NSCLC = tested on: HOP-62 NSCLC
MALME-3M melanoma = tested on: MALME-3M melanoma
SF-268 CNS = tested on: SF-268 CNS
SNB-75 CNS = tested on: SNB-75 CNS
HCT-15 colon = tested on: HCT-15 colon
NCI-H522 lung = tested on: NCI-H522 lung
MDA-MB-435 = tested on: MDA-MB-435
DMS 114 small cell lung = tested on: DMS 114 small cell lung
DU-145 prostate = tested on: DU-145 prostate
SK-MEL-2 melanoma = tested on: SK-MEL-2 melanoma
CAKI-1 renal = tested on: CAKI-1 renal
OVCAR-8 ovarian = tested on: OVCAR-8 ovarian
HL-60(TB) leukemia = tested on: HL-60(TB) leukemia
SNB-19 CNS = tested on: SNB-19 CNS
HOP-92 NSCLC = tested on: HOP-92 NSCLC
MDA-MB-231 breast = tested on: MDA-MB-231 breast
U251 CNS = tested on: U251 CNS
CCRF-CEM leukemia = tested on: CCRF-CEM leukemia
XF 498 CNS = tested on: XF 498 CNS
LOX IMVI melanoma = tested on: LOX IMVI melanoma
EKVX NSCLC = tested on: EKVX NSCLC
SN12C renal = tested on: SN12C renal
PC-3 prostate = tested on: PC-3 prostate
KM12 colon = tested on: KM12 colon
LXFL 529 NSCLC = tested on: LXFL 529 NSCLC
SK-OV-3 ovarian = tested on: SK-OV-3 ovarian
TK-10 renal = tested on: TK-10 renal
OVCAR-5 ovarian = tested on: OVCAR-5 ovarian
OVCAR-4 ovarian = tested on: OVCAR-4 ovarian
SK-MEL-5 melanoma = tested on: SK-MEL-5 melanoma
SK-MEL-28 melanoma = tested on: SK-MEL-28 melanoma
SF-539 CNS = tested on: SF-539 CNS
SF-295 CNS = tested on: SF-295 CNS
BT-549 breast = tested on: BT-549 breast
HCC-2998 colon = tested on: HCC-2998 colon
RXF 393 renal = tested on: RXF 393 renal
NCI-H322M lung = tested on: NCI-H322M lung

C[C@@H]1CCOC(=O)/C=C/C=C\C(=O)O[C@@H]2C[C@H]3O[C@@H]4[C@@H]5OC5(C)CCC4(COC(=O)[C@H]1O)[C@]2(C)[C@@]31CO1 (some centres not stated)
GI50 (KM20L2 colon): < 10 nM | TGI (KM20L2 colon): 14.8 nM | GI50 (M19-MEL melanoma): < 10 nM | TGI (M19-MEL melanoma): < 10 nM | GI50 (NCI-H23 lung): 62.4 nM | TGI (NCI-H23 lung): 73.5 nM | GI50 (SW-620 colon): 50.8 nM | TGI (SW-620 colon): 891 nM | TGI (MCF7 breast): 28300 nM | GI50 (DMS 273 small cell lung): < 10 nM | TGI (DMS 273 small cell lung): < 10 nM | GI50 (SR leukemia): 39.7 nM | TGI (SR leukemia): 513 nM | GI50 (A498 renal): < 10 nM | TGI (A498 renal): < 10 nM | GI50 (UACC-257 melanoma): 62.5 nM | TGI (UACC-257 melanoma): 274 nM | GI50 (RPMI-8226 leukemia): 141 nM | TGI (RPMI-8226 leukemia): 372 nM | GI50 (MOLT-4 leukemia): 156 nM | TGI (MOLT-4 leukemia): 278 nM | GI50 (M14 melanoma): 46.2 nM | TGI (M14 melanoma): 68.3 nM | GI50 (NCI-H226 lung): 113 nM | TGI (NCI-H226 lung): 150 nM | TGI (NCI/ADR-RES ovarian): 28300 nM | GI50 (UO-31 renal): 58.3 nM | TGI (UO-31 renal): 88.9 nM | GI50 (MDA-N): 282 nM | TGI (MDA-N): 464 nM | GI50 (OVCAR-3 ovarian): 43 nM | TGI (OVCAR-3 ovarian): 74.8 nM | GI50 (NCI-H460 lung): 32.7 nM | TGI (NCI-H460 lung): 55.8 nM | GI50 (IGROV1 ovarian): 35.1 nM | TGI (IGROV1 ovarian): 524 nM | GI50 (UACC-62 melanoma): < 10 nM | TGI (UACC-62 melanoma): < 10 nM | GI50 (T-47D breast): 338 nM | TGI (T-47D breast): 526 nM | TGI (HCT-116 colon): 14000 nM | GI50 (K-562 leukemia): 360 nM | TGI (K-562 leukemia): 615 nM | GI50 (ACHN renal): 56.3 nM | TGI (ACHN renal): 68.5 nM | GI50 (786-0 renal): 151 nM | TGI (786-0 renal): 273 nM | GI50 (A549 NSCLC): 53.2 nM | TGI (A549 NSCLC): 80.9 nM | GI50 (COLO 205 colon): 39.5 nM | TGI (COLO 205 colon): 68.5 nM | GI50 (HOP-18 NSCLC): 19.8 nM | TGI (HOP-18 NSCLC): 145 nM | GI50 (SNB-78 CNS): < 10 nM | TGI (SNB-78 CNS): 17.1 nM | GI50 (HT29 colon): 28.2 nM | TGI (HT29 colon): 49.8 nM | GI50 (DLD-1 colon): < 10 nM | TGI (DLD-1 colon): < 10 nM | GI50 (HOP-62 NSCLC): 61.6 nM | TGI (HOP-62 NSCLC): 102 nM | GI50 (MALME-3M melanoma): 96.4 nM | TGI (MALME-3M melanoma): 130 nM | GI50 (SF-268 CNS): 102 nM | TGI (SF-268 CNS): 190 nM | GI50 (SNB-75 CNS): 40.6 nM | TGI (SNB-75 CNS): 55.8 nM | GI50 (HCT-15 colon): 64.5 nM | TGI (HCT-15 colon): 102 nM | GI50 (NCI-H522 lung): 54.6 nM | TGI (NCI-H522 lung): 91.2 nM | GI50 (MDA-MB-435): 330 nM | TGI (MDA-MB-435): 796 nM | GI50 (DMS 114 small cell lung): < 10 nM | TGI (DMS 114 small cell lung): < 10 nM | GI50 (DU-145 prostate): 392 nM | TGI (DU-145 prostate): 810 nM | GI50 (SK-MEL-2 melanoma): 106 nM | TGI (SK-MEL-2 melanoma): 139 nM | GI50 (CAKI-1 renal): 52.2 nM | TGI (CAKI-1 renal): 279 nM | GI50 (OVCAR-8 ovarian): 107 nM | TGI (OVCAR-8 ovarian): 135 nM | GI50 (HL-60(TB) leukemia): 135 nM | TGI (HL-60(TB) leukemia): 265 nM | GI50 (SNB-19 CNS): 56.3 nM | TGI (SNB-19 CNS): 69 nM | GI50 (HOP-92 NSCLC): 58.9 nM | TGI (HOP-92 NSCLC): 159 nM | TGI (MDA-MB-231 breast): 2130 nM | GI50 (U251 CNS): 84.5 nM | TGI (U251 CNS): 125 nM | GI50 (CCRF-CEM leukemia): 161 nM | TGI (CCRF-CEM leukemia): 307 nM | GI50 (XF 498 CNS): < 10 nM | TGI (XF 498 CNS): < 10 nM | GI50 (LOX IMVI melanoma): 193 nM | TGI (LOX IMVI melanoma): 423 nM | GI50 (EKVX NSCLC): 354 nM | TGI (EKVX NSCLC): 1280 nM | GI50 (SN12C renal): 37.5 nM | TGI (SN12C renal): 169 nM | GI50 (PC-3 prostate): 345 nM | TGI (PC-3 prostate): 494 nM | GI50 (KM12 colon): 51.8 nM | TGI (KM12 colon): 154 nM | GI50 (LXFL 529 NSCLC): < 10 nM | TGI (LXFL 529 NSCLC): < 10 nM | GI50 (SK-OV-3 ovarian): < 10 nM | TGI (SK-OV-3 ovarian): < 10 nM | GI50 (TK-10 renal): 35.4 nM | TGI (TK-10 renal): 170 nM | GI50 (OVCAR-5 ovarian): 49.7 nM | TGI (OVCAR-5 ovarian): 173 nM | GI50 (OVCAR-4 ovarian): 114 nM | TGI (OVCAR-4 ovarian): 151 nM | GI50 (SK-MEL-5 melanoma): 58.2 nM | TGI (SK-MEL-5 melanoma): 69.7 nM | GI50 (SK-MEL-28 melanoma): < 10 nM | TGI (SK-MEL-28 melanoma): < 10 nM | GI50 (SF-539 CNS): 118 nM | TGI (SF-539 CNS): 148 nM | GI50 (SF-295 CNS): 183 nM | TGI (SF-295 CNS): 666 nM | GI50 (BT-549 breast): < 10 nM | TGI (BT-549 breast): < 10 nM | GI50 (HCC-2998 colon): 51.2 nM | TGI (HCC-2998 colon): 106 nM | GI50 (RXF 393 renal): < 10 nM | TGI (RXF 393 renal): < 10 nM | GI50 (NCI-H322M lung): 131 nM | TGI (NCI-H322M lung): 1020 nM
